FGF22 binding: binders of human FGF22 protein, primary screen, FGF22 synaptogenesis inhibitor project, biophysical, thermal shift, single point. 1.5% of 340,000 active. activity (Tm shift, normalised), % at 9.99 µM. AID 651658, 2012. Fibroblast growth factor 22 (Homo sapiens), Q9HCT0. recombinant FGF22 thermal shift, SYPRO orange fluorescence; percent of sucrose octasulfate shift, DMSO zero;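 active means mean Tm shift, scaled 0 neutral to 100 positive control, at about 1.3% or above, every replicate too, limit read from the data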
UUG fidelity: yeast start codon fidelity modulation | S. cerevisiae UUG-firefly luciferase reporter, luminescence/redox ratio | activity score, % at 18.7 µM | hit rate 0.13% among 350,000 | AID 602363;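 active means replicate mean at a twofold rise or more, about +100% in these data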;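 further: firefly luciferase made from a UUG start codon reports start codon fidelity; reporter light over untreated wells divided by growth signal over untreated wells; some hits fall short of that in this replicate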
SIRT5 inh: SIRT5 desuccinylase inhibitors, primary screen, biochemical, fluorescence imaging, single point, set 5. inhibition, % at 15 µM. Purified SirT5, succinyl-peptide AMC, trypsin-coupled fluorescence. NAD-dependent protein deacylase sirtuin-5, mitochondrial (Homo sapiens), Q9NXA8. 1.1% of 330,000 active; in the data active means inhibition above about 15%
ERp5 block: inhibitors of ERp5-driven insulin aggregation, primary screen, biochemical, turbidity, absorbance 650 nm, single point | Protein disulfide-isomerase A6 (Homo sapiens), Q15084 | 90 min | inhibition, % at 9.99 µM | 0.05% of 350,000 active | AID 651711, 2012;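 active means mean replicate inhibition above about 25%, with every replicate also reaching it, limit read from the data, passing the limit was not always enough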
S100A4 MyoIIA: inhibitors of S100A4-myosin IIA peptide binding, primary screen, biochemical, fluorescence polarization, TAMRA-MyoIIA peptide; Protein S100-A4 (Homo sapiens), P26447; inhibition, % at 10.7 µM; 0.14% of 360,000 active;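 active means mean inhibition of at least 70% across replicates, with every replicate also reaching that level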
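Test system: S100A4 monomer protein. Medium: HEPES buffer with Ca2+, pH 7.2. Reagent: fluorescent myosin IIA peptide, 5 nM. Compound dosing: single-point compound testing. Timing: 5 min between mix addition and reading. Benchmarks: DMSO neutral and TFP positive wells.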
PDI inh: inhibitors of human PDI, primary screen, biochemical, turbidity, single point, plate reader; Protein disulfide-isomerase (Homo sapiens), P07237; PDI insulin aggregation turbidity, A650, 90 min; inhibition, % at 10 µM; 0.052% of 350,000 active; AID 588391, 2011;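 active means mean inhibition across replicates of 30% or more, whatever share of single replicates reach that level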
Active calls of the source: *; . = not tested or not shown. Shown are actives, neighbours in structure and some others; about 2.2% of the full set was active somewhere.

The chains behind the UniProt entries cited, without tags or fusion partners.
Protein disulfide-isomerase A6 (Homo sapiens), Q15084, UniProt Q15084, whole entry, looked up: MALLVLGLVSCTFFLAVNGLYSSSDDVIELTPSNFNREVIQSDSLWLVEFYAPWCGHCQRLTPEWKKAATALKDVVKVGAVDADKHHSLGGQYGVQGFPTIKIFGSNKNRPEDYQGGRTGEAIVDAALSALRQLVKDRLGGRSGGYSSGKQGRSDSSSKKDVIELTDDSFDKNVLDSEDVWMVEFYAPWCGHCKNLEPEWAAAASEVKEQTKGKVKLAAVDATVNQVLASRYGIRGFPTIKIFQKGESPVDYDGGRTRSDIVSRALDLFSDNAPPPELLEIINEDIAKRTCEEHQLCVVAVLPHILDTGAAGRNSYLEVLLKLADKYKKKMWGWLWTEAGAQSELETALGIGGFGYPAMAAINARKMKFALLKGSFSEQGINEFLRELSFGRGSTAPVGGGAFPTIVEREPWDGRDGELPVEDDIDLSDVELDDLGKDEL

| No. | SMILES | FGF22 binding | UUG fidelity | SIRT5 inh |
| --- | --- | --- | --- | --- |
| 1 | C[C@@H]1CCCCO[C@@H](CN(C)CC2CCCCC2)[C@H](C)CN([C@H](C)CO)C(=O)c2cc(NC(=O)Nc3cccc4ccccc34)ccc2O1 | 1.3* | 2 | 6 |
| 2 | C[C@@H]1CN([C@@H](C)CO)C(=O)c2cc(NC(=O)Nc3cccc4ccccc34)ccc2O[C@@H](C)CCCCO[C@@H]1CN(C)CC1CCCCC1 | 1 | 10 | 3 |
| 3 | COc1ccc(NC(=O)Nc2ccc3c(c2)C(=O)N([C@@H](C)CO)C[C@H](C)[C@H](CN(C)C(=O)Nc2ccc(C(F)(F)F)cc2)OCCCC[C@H](C)O3)cc1 | 1 | -17 | 2 |
| 4 | C[C@@H]1CCCCO[C@@H](CN(C)C(=O)Cc2ccccc2)[C@@H](C)CN([C@@H](C)CO)C(=O)c2cc(NC(=O)Nc3ccc(F)cc3)ccc2O1 | -1 | 5 | 32* |
| 5 | C[C@@H]1CN([C@H](C)CO)C(=O)c2cc(NC(=O)Nc3ccc(F)cc3)ccc2O[C@@H](C)CCCCO[C@@H]1CN(C)C(=O)c1ccccc1 | 1.4* | 1 | 4 |
| 6 | C[C@@H]1CCCCO[C@H](CN(C)C(=O)Cc2ccccc2)[C@@H](C)CN([C@@H](C)CO)C(=O)c2cc(NC(=O)Nc3ccc(F)cc3)ccc2O1 | -1 | 3 | 2 |
| 7 | CC(=O)N[C@H]1CC[C@@H](CCNC(=O)C2CCCC2)O[C@@H]1CO | 0 | -3 | -3 |
| 8 | C[C@@H]1CCCCO[C@H](CN(C)C(=O)Nc2ccc(C(F)(F)F)cc2)[C@H](C)CN([C@@H](C)CO)C(=O)c2cc(NC(=O)Nc3ccc(C(F)(F)F)cc3)ccc2O1 | 0 | -18 | . |
| 9 | C[C@@H]1CCCCO[C@H](CN(C)C(=O)Nc2ccc(C(F)(F)F)cc2)[C@@H](C)CN([C@H](C)CO)C(=O)c2cc(NC(=O)Nc3ccc(C(F)(F)F)cc3)ccc2O1 | 1.4* | 17 | 3 |
| 10 | COc1ccc(NC(=O)Nc2ccc3c(c2)C(=O)N([C@@H](C)CO)C[C@@H](C)[C@H](CN(C)C(=O)Nc2cccc4ccccc24)OCCCC[C@H](C)O3)cc1 | 0 | -7 | 20* |
| 11 | C[C@@H]1CCCCO[C@@H](CN(C)C(=O)Nc2ccc3c(c2)OCO3)[C@@H](C)CN([C@H](C)CO)C(=O)c2cc(NC(=O)Nc3ccc4c(c3)OCO4)ccc2O1 | 0 | -2 | 17* |
| 12 | COc1ccc(NC(=O)Nc2ccc3c(c2)C(=O)N([C@H](C)CO)C[C@H](C)[C@H](CN(C)C(=O)Nc2cccc4ccccc24)OCCCC[C@H](C)O3)cc1 | 0 | -7 | 14 |
| 13 | CNC(=O)C[C@@H]1CC[C@H]2[C@@H](COc3ccc(NC(=O)c4ccc5c(c4)OCO5)cc3C(=O)N2C)O1 | 0 | 9 | . |
| 14 | CCOC(=O)C1=C(C)NC(SCc2cc(=O)[nH][nH]2)=C(C#N)C1c1cccs1 (stereo unspecified) | 1 | -9 | 20* |
| 15 | CO[C@H]1CN(C)C(=O)c2cc(NC(=O)NC(C)C)ccc2OC[C@H](C)N(C(=O)C2CCC2)C[C@@H]1C | 0 | . | 2 |
| 16 | COc1ccc(CN(C)C[C@@H]2Oc3ccc(NS(=O)(=O)c4cccs4)cc3CC(=O)N([C@@H](C)CO)C[C@H]2C)cc1 | . | . | . |
| 17 | COc1cccc(C(=O)Nc2ccc3c(c2)OC[C@H](C)NC[C@@H](C)[C@@H](OC)CN(C)C3=O)c1 | 0 | -1 | -1 |
| 18 | Cc1ccc(CSc2nnc(-c3ccncc3)o2)c(C)c1 | 43* | 4 | -1 |

| No. | ERp5 block | S100A4 MyoIIA | PDI inh |
| --- | --- | --- | --- |
| 1 | -1 | -49 | . |
| 2 | -4 | 14 | . |
| 3 | -6 | -5 | . |
| 4 | -3 | -8 | . |
| 5 | -3 | 0 | . |
| 6 | 2 | 0 | . |
| 7 | -3 | 10 | . |
| 8 | . | . | . |
| 9 | -5 | 0 | . |
| 10 | 1 | 12 | . |
| 11 | 1 | 9 | . |
| 12 | 4 | 1 | . |
| 13 | . | . | . |
| 14 | 0 | -10 | 15 |
| 15 | -3 | 21 | . |
| 16 | -3 | 23 | . |
| 17 | -15 | 1 | . |
| 18 | -1 | 2 | 2 |

Look-ups from the list.
Result of cpd 17 under UUG fidelity: -1
Result of cpd 15 under SIRT5 inh: 2

Three entries from above, ordered by count of non-hydrogen atoms, lowest first.
| No. | SMILES | FGF22 binding | UUG fidelity | SIRT5 inh |
| --- | --- | --- | --- | --- |
| 1 | C[C@@H]1CCCCO[C@@H](CN(C)CC2CCCCC2)[C@H](C)CN([C@H](C)CO)C(=O)c2cc(NC(=O)Nc3cccc4ccccc34)ccc2O1 | 1.3* | 2 | 6 |
| 10 | COc1ccc(NC(=O)Nc2ccc3c(c2)C(=O)N([C@@H](C)CO)C[C@@H](C)[C@H](CN(C)C(=O)Nc2cccc4ccccc24)OCCCC[C@H](C)O3)cc1 | 0 | -7 | 20* |
| 8 | C[C@@H]1CCCCO[C@H](CN(C)C(=O)Nc2ccc(C(F)(F)F)cc2)[C@H](C)CN([C@@H](C)CO)C(=O)c2cc(NC(=O)Nc3ccc(C(F)(F)F)cc3)ccc2O1 | 0 | -18 | . |

| No. | ERp5 block | S100A4 MyoIIA | PDI inh |
| --- | --- | --- | --- |
| 1 | -1 | -49 | . |
| 10 | 1 | 12 | . |
| 8 | . | . | . |

Along the list, as entered above:
Compounds 7 to 16 in S100A4 MyoIIA, in turn: 10, ., 0, 12, 9, 1, ., -10, 21, 23

Compound activity from PubChem BioAssay.
